Reference: US7524517B2, “Methods and compositions for P2X receptor calcium entry channels and other calcium entry mechanisms” (UAB Research Foundation, priority 2003, dated 2009)

Tested on: Ca^2+ entry channels
Experiment: Fura-2 quenching experiment (Mn2+ entry)
Conditions: MnCl2 500 μM; zinc 10-50 μM and/or ATP 10-100 μM

SMILES | Mn2+ entry (Fura-2 quenching)
Nc1ncnc2c1ncn2[C@@H]1O[C@H](COP(=O)(O)OP(=O)(O)OP(=O)(O)O)[C@@H](O)[C@H]1O [ATP, reference compound] | potent Ca^2+ entry channel agonists
[Zn+2] [zinc] | potent Ca^2+ entry channel agonists
